Measurements published in paper PMC10142028, “Influence of Molecular Structure and Physicochemical Properties of Immunosuppressive Drugs on Micelle Formulation Characteristics and Cutaneous Delivery” (Pharmaceutics, 2023).

Tested on: Porcine ear skin

`CO[C@H]1C[C@@H]2CC[C@@H](C)[C@@](O)(O2)C(=O)C(=O)N2CCCC[C@H]2C(=O)O[C@H]([C@H](C)C[C@@H]2CC[C@@H](O)[C@H](OC)C2)CC(=O)[C@H](C)/C=C(\C)[C@@H](O)[C@@H](OC)C(=O)[C@H](C)C[C@H](C)/C=C/C=C/C=C/1C` [SIR, sirolimus] was tested, and the “Drug deposition in skin regions (comparison)” value was “large percentage of skin deposition in the dermis”.
